From US20120083520A1

By UniProt entry, the sequences of proteins in these tests, tags left out.
UniProt Q92847, whole entry: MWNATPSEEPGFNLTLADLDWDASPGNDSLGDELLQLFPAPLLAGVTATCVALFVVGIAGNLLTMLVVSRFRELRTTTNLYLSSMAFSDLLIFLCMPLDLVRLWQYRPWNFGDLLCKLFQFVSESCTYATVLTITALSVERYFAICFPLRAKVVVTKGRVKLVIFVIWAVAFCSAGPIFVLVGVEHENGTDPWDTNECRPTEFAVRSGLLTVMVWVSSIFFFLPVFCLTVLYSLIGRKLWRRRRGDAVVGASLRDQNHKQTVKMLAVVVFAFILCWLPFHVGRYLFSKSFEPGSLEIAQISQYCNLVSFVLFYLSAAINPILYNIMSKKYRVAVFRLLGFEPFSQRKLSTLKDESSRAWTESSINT

Target: human ghrelin receptor (GHS-R1a) (human) (UniProt Q92847)
Test: cell-based or functional assay

ghrelin (peptide)
ghrelin-induced Ca++-release (Fluo4 fluorescence), EC50: 5 nM
